Assay results from patent US11771694B2, “Arylamide compounds for treatment and prevention of viral infections” (priority 2020, dated 2023).
In brackets after ≈: the same amount, converted by molar mass.

Tested on: S. aureus

## CC[C@H](C)[C@H](NC(=O)CN)C(=O)NCC(=O)N[C@@H](C)C(=O)N[C@H](C(=O)N[C@@H](CC(C)C)C(=O)N[C@@H](CCCCN)C(=O)N[C@H](C(=O)N[C@@H](CC(C)C)C(=O)N[C@H](C(=O)N[C@H](C(=O)NCC(=O)N[C@@H](CC(C)C)C(=O)N1CCC[C@H]1C(=O)N[C@@H](C)C(=O)N[C@@H](CC(C)C)C(=O)N[C@H](C(=O)N[C@@H](CO)C(=O)N[C@@H](Cc1c[nH]c2ccccc12)C(=O)N[C@H](C(=O)N[C@@H](CCCCN)C(=O)N[C@@H](CCCNC(=N)N)C(=O)N[C@@H](CCCCN)C(=O)N[C@@H](CCCNC(=N)N)C(=O)N[C@@H](CCC(N)=O)C(=O)N[C@@H](CCC(N)=O)C(N)=O)[C@@H](C)CC)[C@@H](C)CC)[C@@H](C)O)[C@@H](C)O)C(C)C)C(C)C [melittin]
  MIC S. aureus: 2 µg/mL (≈ 0.703 µM)
